Laboratory results published in patent US4209588A, “Process for producing new antitumor anthracycline antibiotics” (Zaidan Hojin Biseibutsu Kagaku Kenkyu Kai, priority 1976, dated 1980).

Columns and labels:
[1] = test system: DNA synthesis in L1210 cells; assay: DNA synthesis in cultured L1210 cells (14C incorporation); conditions: 1.0 μg./ml.; 60 min. at 37° C.
[2] = test system: RNA synthesis in L1210 cells; assay: RNA synthesis in cultured L1210 cells (14C incorporation); conditions: 0.5 μg./ml.; 60 min. at 37° C.

CC[C@@]1(O)C[C@H](O[C@H]2C[C@H](N(C)C)[C@H](O[C@H]3C[C@H](O)[C@H](OC4CCC(=O)C(C)O4)[C@H](C)O3)[C@H](C)O2)c2c(cc3c(c2O)C(=O)c2c(O)cccc2C3=O)[C@H]1C(=O)OC (stereo partly drawn) [D-cinerulosyl-2-deoxy-L-fucosyl-L-rhodosaminyl-alkavinone]
% Inhibition, Synthesis of DNA [1]: 40.9%
% Inhibition, Synthesis of RNA [2]: 65.6%

CC[C@@]1(O)C[C@H](O[C@H]2C[C@H](N(C)C)[C@H](O[C@H]3C[C@H](O)[C@H](O[C@H]4CCC(=O)[C@H](C)O4)[C@H](C)O3)[C@H](C)O2)c2c(cc3c(c2O)C(=O)c2c(O)cccc2C3=O)[C@H]1C(=O)OC [Aclacinomycin, reference compound]
% Inhibition, Synthesis of DNA [1]: 69.6%
% Inhibition, Synthesis of RNA [2]: 81.6%

CC[C@@]1(O)C[C@H](O[C@H]2C[C@H](N(C)C)[C@H](O[C@H]3C[C@H](O)[C@H](O[C@H]4C[C@H](O)[C@H](O)[C@H](C)O4)[C@H](C)O3)[C@H](C)O2)c2c(cc3c(c2O)C(=O)c2c(O)ccc(O)c2C3=O)[C@H]1C(=O)OC [MA 144-U2]
% Inhibition, Synthesis of DNA [1]: 30.5%
% Inhibition, Synthesis of RNA [2]: 71.5%

CC[C@@]1(O)C[C@H](O[C@H]2C[C@H](N(C)C)[C@H](O[C@H]3C[C@H](O)[C@H](OC4CCC(=O)C(C)O4)[C@H](C)O3)[C@H](C)O2)c2c(cc3c(c2O)C(=O)c2c(O)ccc(O)c2C3=O)[C@H]1C(=O)OC (stereo partly drawn) [D-cinerulosyl-2-deoxy-L-fucosyl-L-rhodosaminyl-ε-pyrromycinone]
% Inhibition, Synthesis of DNA [1]: 39.4%
% Inhibition, Synthesis of RNA [2]: 57.8%
